Target: γ-secretase (Homo sapiens, UniProt P49768)
Test: Isolated membrane γ-secretase assay, time-resolved fluorescence detection of Aβ
Details: read-out: Activity (IC50), Inhibition of β-Amyloid Peptide; isolated membranes, about 90 minutes at 37 degrees C
Source text: The detection of γ-secretase activity requires assays capable of reliable, accurate and expedient detection of γ-secretase cleavage products, particularly Aβ. An isolated membrane fraction that contains functionally active γ-secretase and β-APP substrates can generate γ-secretase cleavage products including Aβ (Roberts et al., WO 01/75435; Fechteler et al., Patent Application No. DE 99-19941039 19990828; Shearman et al., Biochemistry, 39, p. 8698–8704 (2000); Zhang et al., Biochemistry, 40, p. 5049-5055 (2001)). […] 325–327 (1992), or by a preferred method using time-resolved fluorescence of the homogeneous sample containing membranes and Aβ (Roberts et al., WO 01/75435; Shearman et al., Biochemistry, 39, p. 8698–8704 (2000)). The Aβ present in a homogeneous sample containing membranes can be detected by time-resolved fluorescence with two antibodies that recognize different epitopes of Aβ. […] A lack of fluorescence is indicative of the absence of cleavage products, resulting from inhibition of γ-secretase. […]
A typical membrane-based assay requires 45 μg membrane protein per well in a 96- or 384-well format. […] Incubation of the membranes with the test agent will continue for approximately 90 minutes at which time fluorescence labeled antibodies are added to each well for Aβ quantitation. […]

Compound	IC50 [nM]
C#CCC(O)[C@@H](C)N(c1cc(Cl)ccc1Cl)S(=O)(=O)c1ccc(Cl)cc1 (single isomer, unassigned)	< 50
CC(OC(=O)NCCCn1ccnc1)[C@@H](C)N(c1cc(Cl)ccc1CO)S(=O)(=O)c1ccc(Cl)cc1 (single isomer, unassigned)	< 50

— patent publication US6989399B2, “Antiamyloid phenylsulfonamides: N-alkanol derivatives” (Bristol-Myers Squibb Company, priority 2002, dated 2006)
